Active and inactive are the calls of the source. No cut-off for these calls is given here.
What was measured:
[1] = target: T1, Galectin-4 (Homo sapiens) (UniProt P56470); assay: Binding affinity at recombinant human N-terminal Galectin 4 expressed in Escherichia coli BL21 at 2 mM incubated for 5 mins by fluorescence anisotropy assay
T1 sequence (whole entry): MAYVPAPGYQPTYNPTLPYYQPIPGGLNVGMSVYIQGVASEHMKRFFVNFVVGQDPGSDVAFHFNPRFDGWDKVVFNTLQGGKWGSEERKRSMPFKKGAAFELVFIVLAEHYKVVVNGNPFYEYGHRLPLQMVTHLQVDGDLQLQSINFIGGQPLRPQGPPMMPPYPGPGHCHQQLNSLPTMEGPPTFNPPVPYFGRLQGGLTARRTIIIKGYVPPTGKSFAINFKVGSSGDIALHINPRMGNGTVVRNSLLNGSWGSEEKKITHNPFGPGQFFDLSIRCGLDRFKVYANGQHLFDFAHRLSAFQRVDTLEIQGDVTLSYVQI

Homo sapiens = species: Homo sapiens; assay: Selectivity index, ratio of Kd for recombinant human C-terminal Galectin 9 expressed in Escherichia coli BL21 to Kd for recombinant human N-terminal Galectin 9 expressed in Escherichia coli BL21
[2] = target: T1, Galectin-4 (Homo sapiens); assay: Binding affinity at recombinant human C-terminal Galectin 4 expressed in Escherichia coli BL21 at 2 mM incubated for 5 mins by fluorescence anisotropy assay

Row | Compound | Activity [1] | Ratio (Homo sapiens) | Activity [2]
1 | CO[C@@H]1O[C@H](CO)[C@H](O)[C@H](Nc2ccc(F)c(F)c2)[C@H]1O | inactive | – | –
2 | CO[C@@H]1O[C@H](CO)[C@H](O)[C@H](Nc2cccc(C)c2)[C@H]1O | inactive | – | –
3 | COc1cccc(N[C@H]2[C@@H](O)[C@@H](Sc3ccc(Cl)c(Cl)c3)O[C@H](CO)[C@@H]2O)c1 | – | 5 | –
4 | CO[C@@H]1O[C@H](CO)[C@H](O)[C@@H](Nc2cccc(C)c2)[C@H]1O | inactive | – | inactive
5 | CO[C@@H]1O[C@H](CO)[C@H](O)[C@@H](Nc2ccc(C)cc2)[C@H]1O | inactive | – | inactive
6 | COc1ccc(N[C@@H]2[C@@H](O)[C@@H](CO)O[C@@H](OC)[C@@H]2O)cc1 | inactive | – | inactive
7 | CO[C@@H]1O[C@H](CO)[C@H](O)[C@H](Nc2ccccc2)[C@H]1O | inactive | – | inactive
8 | CO[C@@H]1O[C@H](CO)[C@H](O)[C@@H](Nc2ccc(F)c(F)c2)[C@H]1O | inactive | – | –
9 | CO[C@@H]1O[C@H](CO)[C@H](O)[C@@H](Nc2cccc(Cl)c2)[C@H]1O | inactive | – | inactive
10 | COc1cccc(N[C@@H]2[C@@H](O)[C@@H](CO)O[C@@H](OC)[C@@H]2O)c1 | inactive | – | inactive
11 | CO[C@@H]1O[C@H](CO)[C@H](O)[C@@H](Nc2ccccc2)[C@H]1O | inactive | – | inactive
12 | CO[C@@H]1O[C@H](CO)[C@H](O)[C@H](Nc2ccc(C)cc2)[C@H]1O | – | – | inactive

Reference: ChEMBL document CHEMBL4334540, “Epimers Switch Galectin-9 Domain Selectivity: 3N-Aryl Galactosides Bind the C-Terminal and Gulosides Bind the N-Terminal” (ACS Med Chem Lett, 2020)
